From ChEMBL document CHEMBL1955733, “Optimization of 5-pyridazin-3-one phenoxypropylamines as potent, selective histamine H₃ receptor antagonists with potent cognition enhancing activity” (J Med Chem, 2012)

How the values were obtained:
Histamine H3 receptor = Histamine H3 receptor (Homo sapiens, UniProt Q9Y5N1); experiment: Antagonist activity at human recombinant 5HT3 receptor assessed as inhibition of RAMH-induced [35S]GTPgammaS binding; type: functional
[1] = target: Histamine H3 receptor (Rattus norvegicus) (UniProt Q9QYN8); experiment: Antagonist activity at rat recombinant 5HT3 receptor assessed as inhibition of RAMH-induced [35S]GTPgammaS binding; type: functional
Homo sapiens [2] = species: Homo sapiens; experiment: Selectivity ratio of Ki for human histamine H1 receptor to Ki for human histamine H3 receptor
Homo sapiens [3] = species: Homo sapiens; experiment: Selectivity ratio of Ki for human histamine H2 receptor to Ki for human histamine H3 receptor
Homo sapiens [4] = species: Homo sapiens; experiment: Selectivity ratio of Ki for human histamine H4 receptor to Ki for human histamine H3 receptor

- Kb (Histamine H3 receptor): 0.3 nM
- Kb [1]: 0.3 nM
- Selectivity ratio (Homo sapiens [2]): > 1000
- Selectivity ratio (Homo sapiens [3]): > 1000
- Selectivity ratio (Homo sapiens [4]): > 1000
SMILES: C[C@@H]1CCCN1CCCOc1ccc(-c2cnn(-c3ccccn3)c(=O)c2)cc1
